{"sequences": {"note": "Chains of the proteins cited; added tags and fusions are not shown. Residues count along the entry.", "UniProt Q05941, 23-502": "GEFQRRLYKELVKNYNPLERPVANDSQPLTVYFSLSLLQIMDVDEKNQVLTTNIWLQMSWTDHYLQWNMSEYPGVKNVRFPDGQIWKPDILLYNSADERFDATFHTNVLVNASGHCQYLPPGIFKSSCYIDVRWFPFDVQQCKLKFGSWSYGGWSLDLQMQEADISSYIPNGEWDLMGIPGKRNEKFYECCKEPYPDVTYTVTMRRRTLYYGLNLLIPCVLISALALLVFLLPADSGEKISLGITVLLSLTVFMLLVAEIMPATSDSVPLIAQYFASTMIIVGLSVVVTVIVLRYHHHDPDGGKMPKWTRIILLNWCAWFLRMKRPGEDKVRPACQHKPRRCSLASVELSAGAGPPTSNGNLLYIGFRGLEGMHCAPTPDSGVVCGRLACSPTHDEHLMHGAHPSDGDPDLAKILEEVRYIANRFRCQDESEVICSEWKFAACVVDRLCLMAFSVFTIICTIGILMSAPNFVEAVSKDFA"}, "source": "patent US20100016343A1", "about": "(WYETH, priority 2008, published 2010)", "target": "T1, rat-alpha7-nAChR (Rattus norvegicus, UniProt Q05941)", "T1 construct": "expressed in transfected cells", "assay": "functional FLIPR assay, alpha7 nAChR stably expressed in GH4C1 cells", "type": "cell-based", "conditions": "Alpha 7 EC50 (μM), GH4C1 cell line expressing the alpha7 nAChR, concentration-response curves", "source_text": "Rat GH4C1 cells were then transfected with the rat receptor, cloned and analyzed for functional alpha7 nicotinic receptor expression employing a FLIPR assay to measure changes in intracellular calcium concentrations.\nThe FLIPR system allows the measurements of real time Ca^2+-concentration changes in living cells using a Ca^2+ sensitive fluorescence dye (such as Fluo4). This instrument enables the screening for agonists and antagonists for alpha 7 nAChR channels stably expressed in GH4C1 cells.\nGH4C1 cells stably transfected with rat-alpha7-nAChR (see above) were used. These cells are poorly adherent and therefore pretreatment of flasks and plates with poly-D-lysine was carried out. Cells are grown in 150 cm^2 T-flasks, filled with 30 ml of medium at 37° C. and 5% CO2.\nEC50 and IC50 values were calculated using the IDBS XLfit4.1 software package employing a sigmoidal concentration-response (variable slope) equation:\nY=Bottom+((Top−Bottom)/(1+((EC50/X)̂HillSlope))\nCertain compounds of the present disclosure were tested using the functional FLIPR primary screening assay employing the stable recombinant GH4C1 cell line expressing the alpha7 nAChR.", "data": [{"smiles": "O=C(NCCCCN1CCCCC1)Nc1ccc(-c2ccc(F)cc2)nc1", "values": [{"measurement": "EC50", "result": 0.03, "unit": "µM"}]}]}
